Reference: PMC12491701, “Discovery of an APP-selective BACE1 inhibitor for Alzheimer's disease” (Neurotherapeutics, 2025)

Protein sequences, listed by entry. Tags and fused reporters are not part of them. Residues count along the entry.
UniProt P56817, 46-501 limits assumed: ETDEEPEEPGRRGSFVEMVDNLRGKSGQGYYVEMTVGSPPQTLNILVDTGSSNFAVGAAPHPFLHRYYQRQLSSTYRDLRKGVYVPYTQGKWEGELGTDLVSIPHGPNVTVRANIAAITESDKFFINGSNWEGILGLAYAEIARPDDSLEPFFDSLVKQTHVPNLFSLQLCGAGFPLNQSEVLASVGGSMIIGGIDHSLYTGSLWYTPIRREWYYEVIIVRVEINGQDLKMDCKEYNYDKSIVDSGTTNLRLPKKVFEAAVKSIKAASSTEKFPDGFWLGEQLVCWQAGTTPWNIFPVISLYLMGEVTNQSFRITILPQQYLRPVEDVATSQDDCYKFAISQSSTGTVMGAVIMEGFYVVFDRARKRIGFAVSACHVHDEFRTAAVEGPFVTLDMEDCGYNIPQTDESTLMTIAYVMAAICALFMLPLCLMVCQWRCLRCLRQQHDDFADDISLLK
UniProt P02768, 25-609 limits assumed: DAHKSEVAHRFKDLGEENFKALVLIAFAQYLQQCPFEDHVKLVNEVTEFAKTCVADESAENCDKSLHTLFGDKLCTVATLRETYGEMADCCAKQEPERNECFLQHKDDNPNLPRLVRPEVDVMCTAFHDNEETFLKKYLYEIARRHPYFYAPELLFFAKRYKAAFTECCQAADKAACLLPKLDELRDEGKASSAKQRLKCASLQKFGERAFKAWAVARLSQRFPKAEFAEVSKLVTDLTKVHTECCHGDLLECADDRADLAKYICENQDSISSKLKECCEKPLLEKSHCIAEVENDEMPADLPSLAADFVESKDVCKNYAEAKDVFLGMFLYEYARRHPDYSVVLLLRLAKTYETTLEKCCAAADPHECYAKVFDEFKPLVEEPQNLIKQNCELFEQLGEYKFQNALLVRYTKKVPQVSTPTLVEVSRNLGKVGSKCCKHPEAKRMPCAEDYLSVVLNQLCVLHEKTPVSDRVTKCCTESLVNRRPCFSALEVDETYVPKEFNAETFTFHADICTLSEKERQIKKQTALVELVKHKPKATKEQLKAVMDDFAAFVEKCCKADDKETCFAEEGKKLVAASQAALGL

Columns and labels:
[1] = biological target: BACE1 (Homo sapiens, UniProt P56817); assay: P5-P5′ BACE1 inhibition assay; type: biochemical; conditions: tested form: HCl
[2] = test system: CHO-7W cells expressing wildtype human APP; assay: sAPPβ and Aβ1-42 production in CHO-7W cells (AlphaLISA)
[3] = Kinetic solubility assay; conditions: PBS pH 7.4, 37 °C, 90 min; tested form: HCl
[4] = Plasma stability assay; conditions: human plasma, 37 °C, 180 min; tested form: HCl
[5] = biological target: human serum albumin (HSA) (Homo sapiens, UniProt P02768); assay: Human serum albumin (HSA) binding assay; conditions: tested form: HCl
[6] = Brain tissue binding assay; conditions: brain homogenate, 2 µM compound; tested form: HCl
[7] = PK of FAH65E(-) in ApoE4-TR:5xFAD mice; conditions: tested form: HCl
[8] = test system: sAPPβ levels in brain; assay: PD of FAH65E(-) in ApoE4-TR:5xFAD mice (brain sAPPβ); conditions: 2 h after last oral dose of 30 mg/kg, in words, tested form: HCl
[9] = biological target: BACE1 cleavage of MBP-APPC125 substrate (Homo sapiens, UniProt P56817); assay: MBP-APPC125 BACE1 cleavage assay; type: biochemical; conditions: in words, tested form: HCl
[10] = test system: HEK293T cells stably expressing full-length APP with N-terminal GFP; assay: HEK-APP-GFP cell assay; conditions: 1 μM, 48 hours, tested form: HCl
[11] = dose-response, tested form: HCl

IC50 ([1]; read-out: BACE1 IC50 (P5-P5′ assay; BACE1-APP), cell-free): 5 nM
IC50 ([1]; read-out: In vitro IC50, Table S3): < 10 nM
Kinetic solubility [3]: 79 µM
Plasma stability t1/2 [4]: > 3 h
Plasma (HSA) binding, funbound [5]: 0.49%
Brain tissue binding, funbound [6]: 5.4%
Unbound brain concentration at Cmax ([7]; 30 mkd oral, from brain Fu): 9.6 nM
time of brain Cmax ([7]; ApoE4-TR:5xFAD mice, oral 30 mg/kg, after last dose): 1 h
inhibition of BACE1 cleavage of MBP-APPC125 [9]: significantly inhibits
inhibition of BACE1 cleavage of MBP-APPC125 ([9]; listed as FAH65 E(-)): active
Structure (SMILES): Cc1cc([C@]2(c3cccc(-c4cncnc4)c3)N=C(N)N(C)C2=O)ccc1OC(F)F
concentrations giving reduction in Aβ1-42 [2, 11]: ≥ 25 nM
concentrations giving reduction in sAPPβ [2, 11]: ≥ 5 nM
EC50 ([2]; read-out: EC50 for sAPPβ reduction, tested form: HCl): 25 nM
EC50 ([2]; read-out: EC50 for sAPPβ reduction, tested form: HCl, listed as FAH65-E(-)): 25 nM
sAPPβ levels in brain [8]: decreased
GFP signal intensity vs. DMSO [10]: significantly greater

Like-named read-outs stand apart in the source and are kept apart here.
